Measured values published in PubChem BioAssay (NCATS).
The list shows a part of the results, in another mix than the full data. Results filed as inconclusive are left out. Some salts or complexes appear as unconnected parts, following the source record. Calls of active or inactive are those of the source. The call rests on the fitted dose curve; in most records, active means well fitted curve in the direction sought with a large enough effect; inconclusive means small, poorly fitted or top-dose-only effect, or another doubt; inactive means no such curve, though single readings can be large; an effect the other way counts as inactive or inconclusive.

Sequences of proteins named here, by UniProt entry; tags and fusion partners are left off.
UniProt O15297, whole entry: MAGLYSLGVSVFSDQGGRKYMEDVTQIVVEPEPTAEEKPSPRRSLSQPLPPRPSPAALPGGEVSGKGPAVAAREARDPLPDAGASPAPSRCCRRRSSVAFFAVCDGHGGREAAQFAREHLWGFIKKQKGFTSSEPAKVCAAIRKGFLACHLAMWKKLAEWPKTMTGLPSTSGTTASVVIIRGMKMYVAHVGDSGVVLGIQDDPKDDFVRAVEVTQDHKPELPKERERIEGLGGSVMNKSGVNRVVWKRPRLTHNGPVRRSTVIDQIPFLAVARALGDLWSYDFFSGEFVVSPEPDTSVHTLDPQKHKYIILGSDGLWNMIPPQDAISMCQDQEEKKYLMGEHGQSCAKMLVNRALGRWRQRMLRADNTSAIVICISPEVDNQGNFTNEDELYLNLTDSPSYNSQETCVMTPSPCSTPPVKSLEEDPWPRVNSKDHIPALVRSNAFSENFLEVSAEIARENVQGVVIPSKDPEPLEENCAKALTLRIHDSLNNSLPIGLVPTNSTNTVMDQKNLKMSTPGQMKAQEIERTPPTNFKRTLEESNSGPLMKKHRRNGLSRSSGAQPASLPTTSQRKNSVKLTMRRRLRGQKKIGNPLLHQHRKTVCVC
UniProt Q99828, whole entry: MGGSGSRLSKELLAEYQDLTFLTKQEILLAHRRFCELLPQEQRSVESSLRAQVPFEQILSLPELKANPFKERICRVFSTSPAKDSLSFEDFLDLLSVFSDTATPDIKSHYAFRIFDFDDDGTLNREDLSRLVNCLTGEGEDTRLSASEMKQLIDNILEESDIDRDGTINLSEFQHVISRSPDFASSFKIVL

Target: Protein phosphatase 1D (Homo sapiens) (UniProt O15297)
Assay: Rhodamine-PBP qHTS Assay for Modulators of WT P53-Induced Phosphatase 1 (WIP1) (AID 1347425); further: % of control where 0% means no effect
Details: recombinant WIP1, Rhodamine-PBP phosphate fluorescence, real-time; at 57.5 µM (top of the series) unless noted
In short: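 Steps: enzyme with Rh-PBP sensor and compounds, room-temperature incubation of 1 hr, baseline read, addition of VEPPL-pS-QETFS (10 uM final), kinetic fluorescence reads at 525/598 nm. Activity equals final minus baseline signal.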

SMILES | activity change, negative = inhibition
O=[N+]([O-])c1cccc([N+](=O)[O-])c1 | inactive: 11.1% [at 116 µM]
OCCSCCO | inactive: 0.0359%
Cc1cccc([N+](=O)[O-])c1[N+](=O)[O-] | inactive: 4.48% [at 82.2 µM]
CCOP(=O)(CC)Oc1ccc([N+](=O)[O-])cc1 (configuration not stated) | inactive: -1.78%
C/C1=C2N=C(/C=C3N=C(/C(C)=C4\[N-][C@@](C)([C@@H]5N=C1[C@](C)(CCC(=O)NC[C@@H](C)OP(=O)([O-])O[C@H]1[C@@H](O)[C@@H](n6cnc7cc(C)c(C)cc76)O[C@@H]1CO)[C@H]5CC(N)=O)[C@@](C)(CC(N)=O)[C@@H]4CCC(N)=O)[C@@](C)(CC(N)=O)[C@@H]\3CCC(N)=O)C(C)(C)[C@@H]/2CCC(N)=O.[C-]#N.[Co+3] | inactive: -17.9%

Target: Calcium and integrin-binding protein 1 (Homo sapiens) (UniProt Q99828)
Assay: Primary qHTS for Identification of Calcium Integrin Binding Protein 1 (CIB1) Competitor (AID 1508620);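 further: GST tagged CIB1 binding a fluorescein labelled alphaIIb integrin peptide tracer; top concentration of the series differs between compounds; on the % scale 0 is the no-effect control and ±100 the full control effect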
Details: CIB1-GST / FITC-alphaIIb peptide fluorescence polarization; at 114 µM (top of the series) unless noted
In short: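 Fluorescence polarization competition: GST-tagged CIB1 (1 uM final) preincubated with compound 15 min at room temperature, then FITC-labelled alphaIIb peptide (100 nM final) added. After 15 min at room temperature, polarization read at Ex 480/Em 540.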

SMILES | activity change, negative = inhibition
O=[N+]([O-])c1cccc([N+](=O)[O-])c1 | inactive: -4.88% [at 228 µM]
OCCSCCO | inactive: 0.989%
Cc1cccc([N+](=O)[O-])c1[N+](=O)[O-] | inactive: -3.01% [at 228 µM]
CC1=C2[N-][C@@](C)([C@@H]3N=C(C(C)=C4N=C(C=C5N=C1[C@@](C)(CC(N)=O)[C@H]5CCC(N)=O)C(C)(C)[C@H]4CCC(N)=O)[C@](C)(CCC(=O)NC[C@@H](C)OP(=O)([O-])O[C@H]1[C@@H](O)[C@@H](n4cnc5cc(C)c(C)cc54)O[C@H]1CO)[C@H]3CC(N)=O)[C@@](C)(CC(N)=O)[C@@H]2CCC(N)=O.[C-]#N.[Co+3] | inactive: 2.94% [at 30.2 µM]
CCOP(=O)(CC)Oc1ccc([N+](=O)[O-])cc1 (configuration not stated) | inactive: 4.64%
C/C1=C2N=C(/C=C3N=C(/C(C)=C4\N=C(C(CC(N)=O)C4(C)CCC(=O)NCC(C)OP(=O)([O-])OC4C(CO)OC(n5cnc6cc(C)c(C)cc65)C4O)C4(C)N=C1C(CCC(N)=O)C4(C)CC(N)=O)C(CCC(N)=O)C\3(C)C)C(CCC(N)=O)C/2(C)CC(N)=O.[C-]#N.[Co] (configuration not stated) | inactive: 4.31% [at 57.7 µM]
C/C1=C2N=C(/C=C3N=C(/C(C)=C4\[N-][C@@](C)([C@@H]5N=C1[C@](C)(CCC(=O)NC[C@@H](C)OP(=O)([O-])O[C@H]1[C@@H](O)[C@@H](n6cnc7cc(C)c(C)cc76)O[C@@H]1CO)[C@H]5CC(N)=O)[C@@](C)(CC(N)=O)[C@@H]4CCC(N)=O)[C@@](C)(CC(N)=O)[C@@H]\3CCC(N)=O)C(C)(C)[C@@H]/2CCC(N)=O.[C-]#N.[Co+3] | inactive: 9.8%
